The results in this text go back to PubChem BioAssay AID504775 (Broad Institute, 2011).

Structures are written as SMILES. This is a selection; strong and weak results do not stand in their true shares. Some structures show a salt or complex split into parts, the way the source records it. The source made the active and inactive calls.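 Rule for the calls: active = mean replicate activation of at least 60% and every replicate at or above 60%; inconclusive = mean or all-replicate condition met, but not both; inactive = mean below 60% and not all replicates reaching 60%.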

This experiment is described as follows: enhancers of HDL lipid transfer via mSR-BI – ldlA[mSR-BI] CHO cells, DiI fluorescence, primary screen (AID 504775).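 Note: 0% = median plate neutral-control signal and 100% = twice that signal.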 The note with it: DiI-HDL uptake fluorescence, 3 h, at 12.5 µM, stronger effect = higher value, 100 = double the neutral-control signal. Summed up: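 Test system: SR-BI-overexpressing, LDLR-lacking CHO cells; Medium: Ham's F12 with 0.5% BSA, HEPES 25 mM, pH 7.4; Schedule: 3 h, 37 °C; Technique: bottom-read fluorescence, 550/595 nm.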
In the case of `O=[N+]([O-])c1cc([N+](=O)[O-])c(Nc2cccnc2)c([N+](=O)[O-])c1`, the activation was inactive: 23.5%. Turning to `CC(C)(C)c1ccc(OP(C)(=O)Nc2ccc(SC(F)(F)F)cc2)cc1` (centres undefined), the activation was inactive: -14.6%. As to `Cc1cccc(C)c1OP(C)(N)=O` (centres undefined), the activation was inactive: 19.3%. For `O=[N+]([O-])c1ccc2c(c1)C=Nc1ccccc1O2` the value was inactive: -3.46%; for `CCOC(=O)c1ccc(NP(C)(=O)Oc2ccccc2)cc1` (centres undefined), inactive: 16.8%; for `COc1ccccc1OP(C)(=O)Nc1ccc(C)cc1` (centres undefined), inactive: 22.8%. In the case of `Cc1ccc(NP(C)(=O)Oc2ccccc2)c(C)c1` (centres undefined), the activation is inactive: -4.88%. Regarding `COc1ccccc1OP(C)(=O)Nc1cc(Cl)ccc1C` (centres undefined), the activation was inactive: -28.8%. Consider `COc1ccc(OP(C)(=O)Nc2cccc(F)c2)cc1` (centres undefined), for which the activation was inactive: -2.58%. The result for `Cc1cc(C)cc(OP(C)(N)=O)c1` (centres undefined) reads inactive: 31.1%; that for `CCN(CC)CCCOC(=O)C(O)(c1ccccc1)c1ccccc1`, inactive: -1.84%; that for `Cc1cccc(C)c1OP(C)(=O)Nc1ccc(SC(F)(F)F)cc1` (centres undefined), inactive: -15.2%. In the case of `CP(=O)(Oc1ccccc1)OC(c1ccccc1)C(F)(F)F` (centres undefined), the activation is inactive: 23.4%. For `CP(=O)(NC(=O)Nc1ccccc1)Oc1ccccc1` (centres undefined), the activation is inactive: 31%. Take `Cc1cc(C)cc(OP(C)(=O)Nc2ccc(SC(F)(F)F)cc2)c1` (centres undefined): the activation was inactive: 15.3%. In the case of `CCOP(C)(=S)SCC(=O)NC(C)C(=O)O` (centres undefined), the activation is inactive: 11.2%. As to `CCOC(=O)c1ccc(NP(C)(=O)Oc2ccc(OC)cc2)cc1` (centres undefined), the activation is inactive: -15.4%. For the molecule `CP(=O)(Nc1ccccn1)Oc1ccc(Cl)cc1` (centres undefined), the activation is inactive: 15.7%.

As to `CP(=S)(Nn1cnnc1)Oc1ccccc1` (centres undefined), the activation is inactive: 11.6%. On to `COc1ccccc1OP(C)(=O)Nc1ccccc1` (centres undefined), for which the activation is inactive: 3.69%.

As for `CC1=C2N=C(C=C3N=C(C(C)=C4[N-][C@@](C)([C@@H]5N=C1[C@](C)(CCC(=O)NC[C@@H](C)OP(=O)([O-])O[C@H]1[C@@H](O)[C@@H](n6cnc7cc(C)c(C)cc76)O[C@@H]1CO)[C@H]5CC(N)=O)[C@@](C)(CC(N)=O)[C@@H]4CCC(N)=O)[C@@](C)(CC(N)=O)[C@@H]3CCC(N)=O)C(C)(C)[C@@H]2CCC(N)=O.[C-]#N.[Co+3]`, the activation was inactive: 3.45%.

On to `O=[N+]([O-])c1cc([N+](=O)[O-])c(Nc2nnnn2CCO)c([N+](=O)[O-])c1`, for which the activation is inactive: 7.74%. Take `CCOC(=O)C(CC)C1=NC(C)(C)Cc2ccccc21.O=[N+]([O-])c1cc([N+](=O)[O-])c(O)c([N+](=O)[O-])c1` (centres undefined): the activation is inactive: -1.44%. As to `COc1ccccc1OP(C)(=O)Nc1c(C)cccc1C` (centres undefined), the activation was inactive: 12.9%. For the molecule `CN1CCCCC1COC(=O)C1(O)c2ccccc2CCc2ccccc21` (centres undefined), the activation was inactive: -3.92%. The result for `CCCOc1ccc(NP(C)(=O)Oc2ccc(Cl)cc2)cc1` (centres undefined) reads inactive: -6.06%; that for `CP(=O)(Nc1ccc(SC(F)(F)F)cc1)Oc1ccccc1` (centres undefined), inactive: 4.62%; that for `O=[N+]([O-])c1cc([N+](=O)[O-])c(-n2nnc3ccccc32)c([N+](=O)[O-])c1`, inactive: 12.8%. `O=[N+]([O-])c1cc([N+](=O)[O-])c(-c2cnn(-c3ccccc3)c2)c([N+](=O)[O-])c1`: the activation was inactive: -31.8%. As for `Cc1nc2ccc3ccccc3c2s1.O=[N+]([O-])c1cc([N+](=O)[O-])c(O)c([N+](=O)[O-])c1`, the activation is inactive: -10.9%. On to `COc1ccccc1OP(C)(=O)Nc1cccc(Br)c1` (centres undefined), for which the activation was inactive: 8.69%. Consider `Cc1cc(C)cc(OP(C)(=O)Nc2ccc(C)cc2C)c1` (centres undefined), for which the activation was inactive: -27.2%. The result for `CCOC(=O)c1ccc(NP(C)(=O)Oc2cc(C)cc(C)c2)cc1` (centres undefined) reads inactive: -6.86%. With `Cc1cc(C)cc(OP(C)(=O)Nc2ccccn2)c1` (centres undefined), the activation was inactive: 8.53%. With `CP(=O)(Nc1cccc(Br)c1)Oc1ccccc1` (centres undefined), the activation is inactive: -1.13%.

As to `Cc1ccc(C)c(NP(C)(=O)Oc2ccccc2)c1` (centres undefined), the activation was inactive: 9.76%. With `COc1ccc(OP(C)(=O)Nc2ccc(SC(F)(F)F)cc2)cc1` (centres undefined), the activation was inactive: 43.4%. Take `CCOC(=O)c1ccc(NP(C)(=O)Oc2ccc(F)cc2)cc1` (centres undefined): the activation is inactive: -2.22%. As to `CCN(CC)CCCOC(=O)C(O)(c1ccccc1)C1CCCCC1` (centres undefined), the activation was inactive: 23.1%. Consider `Cc1c([N+](=O)[O-])cc([N+](=O)[O-])c(Br)c1[N+](=O)[O-]`, for which the activation is inactive: -12.9%. `O=[N+]([O-])c1cc([N+](=O)[O-])c(OC2CCCCC2O)c([N+](=O)[O-])c1` (centres undefined): the activation was inactive: -1.94%.

Take `CCCCCOc1ccc(NP(C)(=O)Oc2ccc(Cl)cc2Cl)cc1` (centres undefined): the activation is inactive: 21.1%.

Regarding `CP(=O)(Nc1ccccc1)Oc1ccc(F)cc1` (centres undefined), the activation was inactive: 17%. On to `CC(C)c1ccc(OP(C)(=O)Nc2ccc(SC(F)(F)F)cc2)cc1` (centres undefined), for which the activation is inactive: 2.21%. The result for `CP(=O)(Nc1ccccc1F)Oc1ccccc1` (centres undefined) reads inactive: 9.12%; that for `O=C(OCCN1CCN(CCOCc2ccccc2)CC1)C(O)(c1ccccc1)c1ccccc1`, inactive: 0.742%; that for `O=C(OC1CN2CCC1CC2)c1ccc([N+](=O)[O-])cc1` (centres undefined), inactive: 6.48%.

Take `COc1ccc2c(c1O)-c1c(O)c(OC)cc3c1[C@H](C2)[N+](C)(C)CC3.O=[N+]([O-])c1cc([N+](=O)[O-])c([O-])c([N+](=O)[O-])c1[O-]`: the activation is inactive: 13.3%. `CP(=O)(Nc1ccc(SC(F)(F)F)cc1)Oc1ccc(F)cc1` (centres undefined): the activation was inactive: 2.3%. As to `CCOP(C)(=S)SCC(=O)NC(C)(CC)C(=O)O` (centres undefined), the activation was inactive: 0.118%.

Take `CP(=O)(Nc1ccc2c(c1)OCCO2)Oc1ccccc1` (centres undefined): the activation is inactive: 23.5%. For the molecule `Cc1ccccc1NP(C)(=O)Nc1ccccc1C`, the activation was inactive: 17.7%. For the molecule `COc1ccc(OP(C)(=O)Nc2cccc(Br)c2)cc1` (centres undefined), the activation was inactive: 2.34%. The result for `COc1ccc(NP(C)(=O)Oc2ccccc2OC)cc1` (centres undefined) reads inactive: -15%; that for `CN(C)CCOC(=O)C(O)(c1ccccc1)C1CCCCC1` (centres undefined), inactive: -9.97%.

For `O=[N+]([O-])c1cc([N+](=O)[O-])c(NCC2CCS(=O)(=O)C2)c([N+](=O)[O-])c1` (centres undefined), the activation is inactive: 31.9%.

`Cc1cc(-c2cccc3ccccc23)c(C)cn1.O=[N+]([O-])c1cc([N+](=O)[O-])c(O)c([N+](=O)[O-])c1`: the activation is inactive: -13.1%.

As for `O=[N+]([O-])c1ccc(OP2(=O)COCCO2)cc1` (centres undefined), the activation is inactive: 0.356%. For `CP(=O)(OC12CC3CC(CC(C3)C1)C2)OC12CC3CC(CC(C3)C1)C2` the value was inactive: 11.4%. Consider `CCOC(=O)c1ccc(NP(C)(=O)Oc2ccc(Cl)cc2)cc1` (centres undefined), for which the activation is inactive: 12.8%. As for `CCN(CC)CC(O)COC(=O)C(O)(c1ccccc1)C1CCCCC1` (centres undefined), the activation is inactive: -0.453%. `CP(=O)(Oc1ccccc1)N1CCOC1=O` (centres undefined): the activation was inactive: 47.3%. For `CCc1ccc(OP(C)(=O)Nc2cccnc2)cc1` (centres undefined) the value was inactive: 12%; for `COc1ccccc1OP(C)(=O)Nc1c(C)n(C)n(-c2ccccc2)c1=O` (centres undefined), inactive: 18.3%; for `O=C(OCCCN1CCCC1)C(O)(c1ccccc1)C1CCCCC1` (centres undefined), inactive: 18%. For `CP(=O)(Nc1ccc(Cl)cc1)Oc1ccc(F)cc1` (centres undefined), the activation was inactive: 2.18%. For `COc1ccccc1OP(C)(=O)Nc1ccccc1Br` (centres undefined) the value was inactive: -21.9%; for `CC(C)(C)c1ccc(OP(C)(=O)O)cc1`, inactive: 23.2%. As for `CN(C)C(=O)c1c([N+](=O)[O-])cc([N+](=O)[O-])cc1[N+](=O)[O-]`, the activation is inactive: 2.13%.

Regarding `COc1ccccc1OP(C)(=O)Nc1ccc(Br)cc1` (centres undefined), the activation was inactive: -3.82%. With `CN(C)CCOC(=O)C(O)(c1ccccc1)C1CCCC1` (centres undefined), the activation is inactive: 30.6%. Take `COc1ccc(OP(C)(=O)Nc2ccccn2)cc1` (centres undefined): the activation is inactive: 20%. The result for `Cc1c(NP(C)(=O)Oc2ccc(C(C)C)cc2)c(=O)n(-c2ccccc2)n1C` (centres undefined) reads inactive: -6.12%; that for `O=[N+]([O-])c1cc([N+](=O)[O-])c(Nc2ccccn2)c([N+](=O)[O-])c1`, inactive: -1.34%. With `CCc1ccc(OP(C)(=O)O)cc1`, the activation is inactive: 28.6%. `CP(=O)(Nc1ccccn1)Oc1ccccc1` (centres undefined): the activation is inactive: 8.89%. For `COc1ccccc1OP(C)(=O)Nc1ccc(C)cc1C` (centres undefined) the value was inactive: -16.1%; for `O=C1C(O)=C([N+](=O)[O-])C(=O)C(O)=C1[N+](=O)[O-]`, inactive: 4.37%. As for `Cc1cc(C)cc(OP(C)(=O)Nc2cccc(C(F)(F)F)c2)c1` (centres undefined), the activation was inactive: -1.76%. Take `COc1ccc(OP(C)(=O)Nc2ccccc2Br)cc1` (centres undefined): the activation was inactive: -16.4%. As to `COc1ccccc1OP(C)(=O)Nc1ccc(C)c(C)c1` (centres undefined), the activation was inactive: -28.4%. Turning to `CP(=O)(Nc1ccc(Cl)cc1Cl)Oc1ccccc1` (centres undefined), the activation is inactive: -13%. Consider `CCCCCCCCCCCCCCCC1C[N+](C)(C)CCOP(C)(=O)O1` (centres undefined), for which the activation was inactive: -15.4%. On to `CP(=O)(OCCOc1ccccc1)OCCOc1ccccc1`, for which the activation was inactive: -17.3%.
